Legend:
hepatocytes HepG2 [1] = settings: 10 µg/mL
hepatocytes HepG2 [2] = experiment: Inhibition of hepatic gluconeogenesis (glucose synthesis); settings: known inhibitors of gluconeogenesis; concentration not given

With insulin the “Reversal of insulin resistance of hepatocytes (hyperinsulinemia model)” value (hepatocytes HepG2 [1]) was “reversed” and the “Inhibition of glucose synthesis by hepatocytes, experimental control compounds” value (hepatocytes HepG2 [2]) was “showed inhibition of glucose synthesis”.

From publication PMC10892041, “Vanadium Complexes with Thioanilide Derivatives of Amino Acids: Inhibition of Human Phosphatases and Specificity in Various Cell Models of Metabolic Disturbances” (Pharmaceuticals, 2024)
